Laboratory results: paper PMC10352258

Sequences of proteins named here, by UniProt entry; tags and fusion partners are left off. Residues count along the entry.
UniProt O00560, 2-298 limits assumed: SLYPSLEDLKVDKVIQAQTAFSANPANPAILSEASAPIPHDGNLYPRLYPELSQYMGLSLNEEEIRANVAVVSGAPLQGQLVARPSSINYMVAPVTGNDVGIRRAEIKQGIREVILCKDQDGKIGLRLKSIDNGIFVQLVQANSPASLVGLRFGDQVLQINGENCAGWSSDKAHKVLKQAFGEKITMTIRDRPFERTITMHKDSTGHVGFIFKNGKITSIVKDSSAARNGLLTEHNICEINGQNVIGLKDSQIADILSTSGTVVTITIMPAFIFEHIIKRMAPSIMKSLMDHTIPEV
UniProt O00560, 2-298 F213A/K214A/T219A limits assumed: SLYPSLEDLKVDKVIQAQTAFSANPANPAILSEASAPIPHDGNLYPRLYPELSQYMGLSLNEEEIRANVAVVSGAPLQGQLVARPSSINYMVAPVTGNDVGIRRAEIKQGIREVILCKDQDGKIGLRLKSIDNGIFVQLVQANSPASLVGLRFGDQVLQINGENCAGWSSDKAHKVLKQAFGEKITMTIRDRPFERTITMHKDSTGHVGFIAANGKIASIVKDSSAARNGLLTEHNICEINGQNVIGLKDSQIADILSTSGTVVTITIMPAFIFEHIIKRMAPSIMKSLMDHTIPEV

Columns and labels:
[1] = biological target: SDCBP (syndecan binding protein) (Homo sapiens, UniProt O00560); test: SPR (Biacore X100, SDCBP immobilized on CM7 chip)
[2] = biological target: SDCBP (syndecan binding protein) (Homo sapiens, UniProt O00560, F213A/K214A/T219A); test: SPR (Biacore X100); binding nearly lost in the mutant

Question: Which Kd [1] does the source give for `CC(C)c1ccc(CN(Cc2ccc(F)cc2)Cc2nc(C(=O)NCCc3ccccn3)co2)cc1` here?
Answer: Its Kd is 0.63 µM.

Question: What about the Kd [2] of the same molecule?
Answer: The Kd was 1800 µM.
